Source: article PMC7261373 (Journal of medicinal chemistry, 2019)

By UniProt entry, the sequences of proteins in these tests, tags left out.
UniProt P03372, whole entry: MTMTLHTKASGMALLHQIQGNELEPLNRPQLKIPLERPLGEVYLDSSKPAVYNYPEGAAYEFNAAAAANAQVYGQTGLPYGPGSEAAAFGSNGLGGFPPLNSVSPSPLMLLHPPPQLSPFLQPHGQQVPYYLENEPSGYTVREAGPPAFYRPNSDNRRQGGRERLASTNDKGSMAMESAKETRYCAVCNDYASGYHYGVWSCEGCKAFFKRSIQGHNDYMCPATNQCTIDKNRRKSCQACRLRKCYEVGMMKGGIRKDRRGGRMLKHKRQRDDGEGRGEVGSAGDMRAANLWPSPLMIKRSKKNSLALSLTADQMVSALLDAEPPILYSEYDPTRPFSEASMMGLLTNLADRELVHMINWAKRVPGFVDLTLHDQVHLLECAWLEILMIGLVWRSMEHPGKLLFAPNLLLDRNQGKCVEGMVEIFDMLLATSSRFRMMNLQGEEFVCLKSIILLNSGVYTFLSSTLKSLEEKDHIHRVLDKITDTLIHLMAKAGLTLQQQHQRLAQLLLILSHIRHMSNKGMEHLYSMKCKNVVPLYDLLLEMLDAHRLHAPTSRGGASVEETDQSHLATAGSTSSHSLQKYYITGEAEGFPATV

Target: ERα (Homo sapiens, UniProt P03372)
Assay: ER western assay with proteasomal inhibitor MG-132 in MCF7:WS8 cells
Format: cell-based
Conditions: MCF7:WS8, 10 nM, MG-132 1 μM, western blot

SMILES: C[C@]12CC[C@@H]3c4ccc(O)cc4C[C@@H](CCCCCCCCC[S+]([O-])CCCC(F)(F)C(F)(F)F)[C@H]3[C@@H]1CC[C@@H]2O (stereo partly shown) [compound 2, fulvestrant, reference compound]
- proteasome dependence of ERα degradation, in words: coadministration of a proteasome inhibitor blocked the actions
